Values of other authors in PMC7573825, “Population Pharmacokinetics of Vancomycin in Kidney Transplant Recipients: Model Building and Parameter Optimization” (Frontiers in Pharmacology, 2020).

Set-up: method as in 3 sources, one per row (each row's own in cited_ref): ref Adane et al., 2015; Lin et al., 2016 ||| ref Ji et al., 2018 ||| ref Lin et al., 2019
Settings: second of two other studies, typical creatinine clearance rate nearly 60 ml/min; ref Lin et al., 2019; cited from earlier work

## CN[C@H](CC(C)C)C(=O)N[C@H]1C(=O)N[C@@H](CC(N)=O)C(=O)N[C@H]2C(=O)N[C@H]3C(=O)N[C@H](C(=O)N[C@H](C(=O)O)c4cc(O)cc(O)c4-c4cc3ccc4O)[C@H](O)c3ccc(c(Cl)c3)Oc3cc2cc(c3O[C@@H]2O[C@H](CO)[C@@H](O)[C@H](O)[C@H]2O[C@H]2C[C@](C)(N)[C@H](O)[C@H](C)O2)Oc2ccc(cc2Cl)[C@H]1O [vancomycin]
  typical value of drug clearance: 2.45 L/h
